Source: PMC2729490 (Biochemistry, 2009)

Assays:
[1] = biological target: T1, calmodulin (CaM), Ca^2+ loaded (Homo sapiens, UniProt P0DP23); test: Isothermal titration calorimetry with CaM; format: binding; conditions: ITC, 25°C, pH 6.5, 10 mM CaCl2
[2] = biological target: T1, calmodulin (CaM), Ca^2+ loaded; test: 1H-15N HSQC NMR titration of 15N CaM; format: binding; conditions: 25 °C, pH 6.5, 10 mM CaCl2, 136-150 μM 15N CaM

heat of binding (sign) [1]: Endothermic binding
stoichiometry of CaM binding / number of binding sites ([1]; one set of sites model): one binding site
ΔH ([1]; one set of sites model): 0.65 ± 0.1 kcal/mol
ΔS ([1]; one set of sites model): 25.1 cal/deg/mol
saturation of CaM, molar equivalents [2]: 2.1 molar equivalents
SMILES: CC[C@H](C)[C@H](NC(=O)[C@@H](NC(=O)[C@H](CS)NC(=O)[C@H](CCCCN)NC(=O)[C@@H](NC(=O)[C@H](CCCCN)NC(=O)[C@H](CO)NC(=O)[C@H](CCCCN)NC(=O)[C@H](CCCCN)NC(=O)[C@H](CCCCN)NC(=O)[C@H](CCCCN)NC(=O)[C@H](CCCCN)NC(=O)[C@H](CCCCN)NC(=O)CNC(=O)[C@H](CC(=O)O)NC(=O)[C@H](CCCCN)NC(=O)[C@H](CO)NC(=O)[C@H](CCSC)NC(=O)[C@H](CCCCN)NC(=O)[C@H](CCC(=O)O)NC(=O)[C@@H](N)CCCCN)[C@@H](C)O)C(C)C)C(=O)N[C@@H](CCSC)C(=O)O [HVR peptide]
